Values of other authors in patent US5463030A, “Metal chelating agents for medical application” (Research Foundation of the State of New York, priority 1994, dated 1995).

Details: cited from earlier work

## manganese-ethylene dipyridoxal diphosphate [Mn-DPDP]
  localization in the liver: 47%
